Measured affinities in a library of Ab-14 light chain variants

From the AlphaSeq antibody data of Li et al. 2023 (doi:10.1038/s41467-023-39022-2), copy in the FLAb collection.

Antigen: PDVDLGDISGINAS, a 14-residue peptide of the SARS-CoV-2 spike HR2 region.

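Phage display of a naive human antibody library on the peptide gave the parent. These sequences belong to a second round, designed from the earlier measurements on random variants of the parent. Their group label is 14L_En_Gibbs (En: ensemble of fine-tuned language models; Gibbs: Gibbs sampling). In AlphaSeq, yeast of one mating type display the scFv and yeast of the other type display the target. Pairs that bind mate more often; barcode pairs of the diploids are counted by sequencing. Scores were corrected for input abundance and mapped to Kd with protein pairs of known affinity run in the same pool. Each pool was mated in six replicate cultures.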

Parent scFv Ab-14: VH joined to VL by three GGGGS repeats. Changes lie in the light chain CDRs alone.
VH: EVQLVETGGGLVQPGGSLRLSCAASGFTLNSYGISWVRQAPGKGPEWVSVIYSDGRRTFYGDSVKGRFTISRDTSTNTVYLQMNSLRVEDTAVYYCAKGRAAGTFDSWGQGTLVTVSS
VL: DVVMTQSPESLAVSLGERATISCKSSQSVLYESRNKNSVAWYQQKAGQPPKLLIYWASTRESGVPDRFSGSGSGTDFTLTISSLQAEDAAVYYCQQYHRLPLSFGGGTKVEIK

Variants are written as CDR1, CDR2 and CDR3 of the light chain (limits as in the source). Parent: KSSQSVLYESRNKNSVA, WASTRES, QQYHRLPLS. Affinities are written as log10 Kd with Kd in nM; a lower number is a better binder. A mean of the replicates is given; it leaves out those without a signal. Where no diploid with the target was found in that replicate, the entry reads "nd": below detection, most likely a poor binder, though not proof of it. Three control strains display no target. For all light chain designs, 4% of the pairings with them gave a signal, with a median of 2.64 and one signal in twenty below 1.59, so weak values seen in few replicates may be background. The control count says in how many pairings with the empty strains this scFv gave a signal, with their mean in brackets. Values of this round are not directly comparable with the first-round values of the same sequences. The parent sequence was in this pool as ten entries: three were never detected, three once, and four in most replicates, with averages from 0.34 to 2.37. In the paper, a design with two or fewer of six values counts as a poor binder.

| CDR-L1 | CDR-L2 | CDR-L3 | replicates, log10 nM | log10 Kd (nM), mean | empty controls |
|---|---|---|---|---|---|
| ALTFPEESVDHHMNNIA | STEKLCM | QQYARLPLS | 1.16 1.03 0.99 0.65 0.83 1.24 | 0.98 | 0/18 |
| MISMEEAPAGQQESSIA | HGGTRAE | QQYNRLPLC | 0.51 0.52 0.41 0.21 0.37 0.32 | 0.39 | 0/18 |
| NVDISANVGYNHKAAVA | GHDERVG | QQYYRLPLA | 0.82 -0.16 1.02 0.58 0.31 0.78 | 0.56 | 1/18 (1.98) |
| AISQMTEPAAQNSSSIA | EADRVTE | QQYSKLPLT | 0.99 1.35 0.86 1.27 0.99 1.07 | 1.09 | 4/18 (3.08) |
| RVSSELMAGEISYNAIA | NTKVLEY | QQYMRLPLG | 0.72 0.36 0.16 0.15 0.01 0.02 | 0.24 | 0/18 |
| MIDMGEAPNGQQTSSIA | QGHLRAE | QQYYRLPLC | 0.19 0.06 0.04 -0.01 0.02 0.07 | 0.06 | 1/18 (2.22) |
| SLFFNDDQLQEESNNIA | HASLRSV | QQYMHLPLV | 0.93 0.74 0.59 0.40 0.75 0.75 | 0.69 | 1/18 (3.22) |
| MITAAMNAYGGSRSNVA | DKEISVN | QQYHHLPLS | 1.05 1.10 0.61 0.74 1.16 0.80 | 0.91 | 0/18 |
| QLDLKMNEQGMQPSAIA | GATNRFT | QQYQKLPLS | -0.05 -0.08 -0.03 -0.12 -0.08 -0.02 | -0.06 | 0/18 |
| TLAQPQKELGYAKDAIA | DGSIRLG | QQYHRLPLV | 0.78 0.20 0.37 0.19 0.45 0.46 | 0.41 | 1/18 (2.20) |
| KLQWQQYGENAMEAAIA | NEGTVHQ | QQYSMLPLT | nd nd nd nd nd nd | nd | 0/18 |
| HLELEEMQMMKDHNSIA | DTESKTR | QQYFRLPIS | 0.48 0.58 0.45 0.49 0.38 0.59 | 0.49 | 1/18 (2.43) |
| QLATEVTQNAKEGHAIA | EHELKAD | QQYFHLPLS | 0.34 -0.08 -0.05 -0.10 -0.10 0.00 | 0.00 | 0/18 |
| QLEWDQLWGANYDYSVA | AQDVILP | QQYDRLPLI | nd nd nd 2.35 nd nd | 2.35 | 0/18 |
| KLDMSLNYESVALDSIA | EEVHHTA | QQYDRLPLF | nd nd nd nd nd nd | nd | 0/18 |
| MVTLQLRNGHEHQNPIA | EASHRAA | QQYAHLPLG | 1.65 1.11 nd 1.64 2.12 2.17 | 1.74 | 0/18 |
| HVSQLLTDEMYREYNVA | ETNHVEE | QDYFRLPLI | 1.68 nd nd nd nd nd | 1.68 | 0/18 |
| LLWQDFYNGRSQANAVA | DGNQLAS | QQYARLPLV | 0.24 0.09 0.33 -0.01 0.10 0.09 | 0.14 | 2/18 (2.08) |
| KIQLGLSRYNGDYSSIA | NETQKGD | QQYFQLPLG | 0.84 0.42 0.50 0.87 0.47 1.02 | 0.69 | 0/18 |
| KLANYMYQGSLVQANVA | EAKELWE | QQYGHLPLA | nd 2.23 nd nd 3.06 nd | 2.65 | 0/18 |
| TLSDWEWYGEEQMNRIA | DRSHLEW | QQYGRLPLS | 0.97 0.04 0.41 0.45 0.52 0.50 | 0.48 | 0/18 |
| SLQSEALGGNQKTSSIA | GNSVAMP | QQYERLPLD | 2.14 1.76 1.78 2.67 1.91 2.21 | 2.08 | 3/18 (2.20) |
| SIQNLGMVNSVWKNSIA | DVTIVED | QQYYRLPLL | 1.03 0.77 0.53 0.52 1.25 0.38 | 0.75 | 1/18 (0.96) |
| MINMEIGIEDRKWQAVA | SATVRAF | QQYGRLPFS | 2.52 2.33 3.01 nd 2.24 2.28 | 2.47 | 2/18 (3.36) |
| YLSINEVSDSNNVSRVA | EAETSVA | QQYHHLPLI | nd 1.32 nd nd nd 2.58 | 1.95 | 0/18 |
| QFHQGMIGDQRNVHSIA | NAQAAVP | QYYFRLPLS | 0.93 0.81 0.66 0.52 1.29 0.33 | 0.76 | 0/18 |
| KLDQKNRWNGMANYNVA | DSNIRVD | QQYHRLPLI | 0.58 0.29 0.48 0.42 0.47 0.29 | 0.42 | 2/18 (2.33) |
| HLSIKLPGNWYMGDSVA | HSERRAE | QQYARLPLG | 0.47 0.12 0.03 0.10 0.39 0.34 | 0.24 | 2/18 (2.49) |
| QIDSFYQHGTDQKQAMA | DVSVRDQ | QQYSRLPLS | 0.17 0.23 0.53 -0.04 0.03 0.22 | 0.19 | 2/18 (1.66) |
| VLSDTIENMASRADNIA | DETETSY | QQYYRLPLS | nd 2.30 2.31 nd 2.43 nd | 2.35 | 0/18 |
| KFAYGLDMNNAHCSAVA | HADIREI | QQYFKLPLM | 1.86 0.54 1.51 1.75 1.80 1.09 | 1.42 | 1/18 (2.41) |
| MIAGSMENQEANWAPVA | SATCKEP | QQYSRLPLM | 1.46 0.95 0.88 1.35 1.59 1.64 | 1.31 | 0/18 |
| KIEISNSVSLRGTRAIA | QGSTRAH | QQYHRLPLT | 1.26 0.99 1.56 1.12 1.57 1.52 | 1.34 | 0/18 |
| QFDLFENYQGMQGANIA | GATNRHT | QQYQKLPLS | 0.57 0.44 1.24 0.55 1.08 0.88 | 0.79 | 0/18 |
| HLSDRLSYGKDLQAAVA | GVQTRMT | QQYARLPLL | 0.36 0.43 0.29 0.29 0.50 0.38 | 0.37 | 0/18 |
| MVNTNLEHQAQRDNNIA | EADMVAA | QDYDRLPLI | 3.10 1.98 1.59 2.72 1.64 2.78 | 2.30 | 1/18 (4.44) |
| NLTDAMASYTGDRHSIA | DKTVTAP | QQYSRLPIT | 0.30 -0.07 -0.04 0.10 0.06 -0.01 | 0.06 | 2/18 (2.27) |
| ELFFNDDQLQEQSNNIA | HASLRSV | QQYYHLPLV | 1.49 1.41 1.35 1.54 1.31 1.57 | 1.44 | 1/18 (2.62) |
| RLWAYTQGFWRNMQNIA | DISYRVT | QQYGRLPLS | 1.40 1.72 1.74 2.08 2.84 2.10 | 1.98 | 0/18 |
| SLQYLEEESLIGASAIA | DVNIAVM | QQYSRLPLA | 0.90 0.65 0.87 0.86 0.54 0.75 | 0.76 | 2/18 (3.07) |
| QLGDNQVGETLMQDAIA | HDALRAD | QQYFRLPLL | 0.44 0.37 -0.03 0.67 1.60 0.57 | 0.60 | 0/18 |
| RLTNEFEKVSAHKNSIA | HTDQRCM | QQYFTLPLH | 1.12 1.03 1.13 1.50 1.15 1.27 | 1.20 | 0/18 |
| SLHLYTNTEENNNNSIA | EKSYRAY | QQYSHLPLV | 1.59 1.21 1.45 1.29 1.93 1.20 | 1.44 | 2/18 (3.28) |
| RLWQQMYGFNIHKNAIA | EGKERTW | QQYFRLPLS | 0.60 0.54 0.62 1.12 1.24 1.22 | 0.89 | 0/18 |
| NMDSQLTHAHENCNSIA | NGQLARI | QQYSRLPFS | nd 1.33 1.28 nd 1.54 1.43 | 1.39 | 1/18 (1.08) |
| RIDAYPNMLGKNIESIA | EAALTLH | QQYARLPLS | 1.82 1.78 2.53 0.95 0.55 0.96 | 1.43 | 1/18 (2.96) |
| NMQMQQDRMQNAKQNVA | GVDMREE | QQYFRLPFL | -0.21 -0.10 -0.42 -0.47 -0.43 -0.29 | -0.32 | 2/18 (2.56) |
| KLFDRTMEGIANQRAVA | EDNDVSV | QQYSILPLT | nd nd nd nd nd nd | nd | 0/18 |
| KVTTNLEHQAQRDNAIA | EADMVAA | QDYMRLPLI | 0.88 0.85 0.76 0.98 0.88 0.98 | 0.89 | 2/18 (3.38) |
| MLQIEPNGYMGMRSNVA | DGVLVRM | QQYARLPLM | 0.97 0.74 1.04 1.04 2.32 1.02 | 1.19 | 0/18 |

The first 5 entries again:

CDR-L1	CDR-L2	CDR-L3	replicates, log10 nM	log10 Kd (nM), mean	empty controls
ALTFPEESVDHHMNNIA	STEKLCM	QQYARLPLS	1.16 1.03 0.99 0.65 0.83 1.24	0.98	0/18
MISMEEAPAGQQESSIA	HGGTRAE	QQYNRLPLC	0.51 0.52 0.41 0.21 0.37 0.32	0.39	0/18
NVDISANVGYNHKAAVA	GHDERVG	QQYYRLPLA	0.82 -0.16 1.02 0.58 0.31 0.78	0.56	1/18 (1.98)
AISQMTEPAAQNSSSIA	EADRVTE	QQYSKLPLT	0.99 1.35 0.86 1.27 0.99 1.07	1.09	4/18 (3.08)
RVSSELMAGEISYNAIA	NTKVLEY	QQYMRLPLG	0.72 0.36 0.16 0.15 0.01 0.02	0.24	0/18